Test results taken from patent US20160115202A1 (OHIO STATE INNOVATION FOUNDATION, published 2016).

Legend:
[1] = target: GST-tagged K-Ras G12V protein (Example 4) (UniProt P01116); assay: FA, dye-labeled resynthesized peptide
[2] = target: GST-tagged K-Ras G12V protein (Example 4) (UniProt P01116); assay: FA
[3] = target: GST-tagged K-Ras G12V protein (Example 4) (UniProt P01116); assay: FA, binding in solution

Substance | Kd [2] [µM] | Kd [3] [µM] | also measured
peptide 2, bicyclo(Phg-Arg-d-Asn-Pra-Ile-K-FNalR4-Dap)-K |  |  | Kd [1]: 5.1 µM
peptide 5, bicyclo(Ala-Phg-Arg-d-Asn-Pra-Ile-K-FNalR4-Dap)-K | 6.4 |  | 
peptide 9, bicyclo(d-Ala-Abu-Phg-Arg-d-Asn-Pra-Ile-Abu-K-FNalR4-Dap)-K |  | 2.5 | 
peptide 11, bicyclo(Ala-d-Leu-Phg-Arg-d-Asn-Pra-Ile-Asp-K-FNalR4-Dap)-K |  | 1.1 | 
peptide 14, bicyclo(d-Ala-Phg-Phg-Arg-d-Asn-Pra-Ile-d-Phe-K-FNalR4-Dap)-K |  | 4.9 | 

The next lines start with results.

Kd [2] [µM] | Kd [3] [µM] | Substance | also measured
5.6 |  | peptide 6, bicyclo(Phg-Arg-d-Asn-Pra-Ile-Ala-K-FNalR4-Dap)-K | 
1.8 |  | peptide 7, bicyclo(Ala-Phg-Arg-d-Asn-Pra-Ile-Ala-K-FNalR4-Dap)-K | 
 | 2.4 | peptide 10, bicyclo(Phg-Ile-Phg-Arg-d-Asn-Pra-Ile-Abu-K-FNalR4-Dap)-K | 
